Measured values from article PMC4980837 (Archiv der Pharmazie, 2013).

Target: recombinant human PDE5 (Homo sapiens, UniProt O76074)
Experiment: PDE5 inhibition, IMAP FP phosphodiesterase assay
Type: biochemical
Conditions: read-out: PDE5 % inhibition at 10 μm

## CCN1C(=O)[C@@H]2Cc3c([nH]c4ccccc34)[C@@H](c3ccc(Br)s3)N2C1=O [Compound 8, (5S,11aS) 5-(5-Bromo-2-thienyl)-2-ethyl-5,6,11,11a-tetrahydro-1H-imidazo[1′,5 ′:1,6]pyrido[3,4-b]indole-1,3(2H)-dione]
  inhibition at 10 µM: 99%
